{
  "source": "patent US20090275653A1",
  "about": "“POLYMORPHIC FORMS OF […]” (priority 2005, published 2009)",
  "key": {"[1]": {"test": "Hygroscopicity study: exposure to 0-100% relative humidity at room temperature (Karl Fischer, TGA, crystal form by XRD)", "type": "physicochemical", "text": "Form E was placed for 1 week under 0-100% relative humidity at room temperature. Table 1 summarizes the results:\nForm F was placed for 14 days under 0-100% relative humidity at room temperature. Table 2 summarizes the results:\nForm H was placed for 14 days under 0-100% relative humidity at room temperature. Table 3 summarizes the results:\nForm J1 was placed for 9 days under 0-100% relative humidity at room temperature. Table 4 summarizes the results:\nTable 5 summarizes the results:\n(§1) X-Ray powder diffraction data were obtained by method known in the art using a SCINTAG powder X-Ray diffractometer model X'TRA equipped with a solid state detector. Copper radiation of 1.5418 Å was used. A round aluminum sample holder with round zero background quartz plate, with a cavity of 25(diameter)*0.5(depth) mm was used.\nTGA analysis was performed using a Mettler M3 meter. The weight of the samples was about 10 mg. The samples were scanned at a rate of 10° C./min from 25° C. to 200° C. The oven was constantly purged with nitrogen gas at a flow rate of 40 ml/min. Standard 70 μl alumina crucibles covered by lids with 1 hole were used.\nThe water content of ladostigil tartrate was measured by methods known in the art, such Karl Fischer analysis.\nCrystal form was determined after equilibration of ladostigil tartrate form A for 10 days at various relative humidities at room temperature.\nForm A1 was exposed at various humidity conditions at room temperature for 13 days.\nLadostigil tartrate form A1 was exposed to various humidity conditions at room temperature for 14 days. TGA was performed, and the crystal form was analyzed.\nA mixture of ladostigil tartrate form A1 and E, containing primarily form A1, was exposed at various humidity conditions at room temperature for 14 days.\nForm E was placed for 7 days under 0-100% relative humidity at room temperature. Table 12 summarizes the results:\nForm F was placed for 14 days under 0-100% relative humidity at room temperature. Table 14 summarizes the results:\nLadostigil tartrate Form H was exposed for 14 days under 0-100% relative humidity at room temperature. Table 15 summarizes the results:\nCrystal ladostigil tartrate Form J1 was placed for 9 days under 0-100% relative humidity at room temperature."}, "[2]": {"test": "Effect of heating on polymorph form", "type": "physicochemical", "description": "as §1\nThe heated sample was analyzed by XRD. Form A1 was obtained.\nVarious polymorph forms and mixtures thereof were heated. The heating conditions and resulting polymorph forms are described in table 17 below: […]"}, "[3]": {"conditions": "0% RH, 8 days, room temperature"}, "[4]": {"conditions": "20% RH, 8 days, room temperature"}, "[5]": {"conditions": "40% RH, 8 days, room temperature"}, "[6]": {"conditions": "60% RH, 8 days, room temperature"}, "[7]": {"conditions": "80% RH, 8 days, room temperature"}, "[8]": {"conditions": "100% RH, 8 days, room temperature"}, "[9]": {"conditions": "As is (before humidity exposure)"}},
  "data": [
    {"substance": "carbamic acid, ethylmethyl-, (3R)-2,3-dihydro-3-(2-propynylamino)-1H-inden-5-yl ester, (2R,3R)-2,3-dihydroxybutanedioate (2:1) [Purely Amorphous Form]", "values": [
      {"measurement": "Crystal Form (resulting form)", "setting": "[1]; [3]", "value": "Amorphous"},
      {"measurement": "Loss on Dry by TGA", "setting": "[1]; [3]", "value": 0.5, "unit": "%"},
      {"measurement": "Crystal Form (resulting form)", "setting": "[1]; 0% RH, 8 days, room temperature, listed as Purely Amorphous form", "value": "Purely Amorphous"},
      {"measurement": "Crystal Form (resulting form)", "setting": "[1]; [4]", "value": "Amorphous"},
      {"measurement": "Loss on Dry by TGA", "setting": "[1]; [4]", "value": 0.8, "unit": "%"},
      {"measurement": "Crystal Form (resulting form)", "setting": "[1]; 20% RH, 8 days, room temperature, listed as Purely Amorphous form", "value": "Purely Amorphous"},
      {"measurement": "Crystal Form (resulting form)", "setting": "[1]; [5]", "value": "Amorphous"},
      {"measurement": "Loss on Dry by TGA", "setting": "[1]; [5]", "value": 1.2, "unit": "%"},
      {"measurement": "Crystal Form (resulting form)", "setting": "[1]; 40% RH, 8 days, room temperature, listed as Purely Amorphous form", "value": "Purely Amorphous"},
      {"measurement": "Crystal Form (resulting form)", "setting": "[1]; [6]", "value": "Amorphous"},
      {"measurement": "Loss on Dry by TGA", "setting": "[1]; [6]", "value": 2.2, "unit": "%"},
      {"measurement": "Crystal Form (resulting form)", "setting": "[1]; 60% RH, 8 days, room temperature, listed as Purely Amorphous form", "value": "Purely Amorphous >> A1"},
      {"measurement": "Crystal Form (resulting form)", "setting": "[1]; 60% RH, 8 days, room temperature, listed as purely amorphous form", "value": "traces of form A1"},
      {"measurement": "Crystal Form (resulting form)", "setting": "[1]; [7]", "value": "Form A1"},
      {"measurement": "Loss on Dry by TGA", "setting": "[1]; [7]", "value": 0.3, "unit": "%"},
      {"measurement": "Crystal Form (resulting form)", "setting": "[1]; 80% RH, 8 days, room temperature, listed as purely amorphous form", "value": "form A1"},
      {"measurement": "Crystal Form (resulting form)", "setting": "[1]; [8]", "value": "Form A"},
      {"measurement": "Loss on Dry by TGA", "setting": "[1]; [8]", "value": 0.4, "unit": "%"},
      {"measurement": "Crystal Form (resulting form)", "setting": "[1]; 100% RH, 8 days, room temperature, listed as purely amorphous form", "value": "form A"},
      {"measurement": "Relative humidity range in which the form is stable", "setting": "[1]; 8 days, room temperature, listed as amorphous Form", "value": "0-60 % RH"},
      {"measurement": "Relative humidity range in which the form is stable", "setting": "[1]; 8 days, room temperature, listed as purely amorphous form", "value": "0-40 % RH"},
      {"measurement": "Crystal Form", "setting": "[1]; [9]", "value": "Amorphous"},
      {"measurement": "Loss on Dry by TGA", "setting": "[1]; [9]", "value": 2.2, "unit": "%"},
      {"measurement": "Water content by Karl Fisher", "setting": "[1]; [9]", "value": 2.2, "unit": "%"},
      {"measurement": "Resulting form after heating/drying", "setting": "[2]; 80° C. in conventional oven, 2 hours", "value": "mixtures of Form A1 and A"},
      {"measurement": "Form obtained after heating (XRD)", "setting": "[2]; heated to 80° C. for 2 hours (Example 41)", "value": "Form A1"}
    ]}
  ]
}
